Measurements taken from PubChem BioAssay AID2546 (National Center for Advancing Translational Sciences (NCATS), 2010).
This is a selection; strong and weak results do not stand in their true shares. Results filed as inconclusive are left out. Activity calls are given as the source filed them. Calls come from the whole dose curve; as a rule, active = well fitted inhibition curve with a large enough effect; inconclusive = small, poorly fitted or top-dose-only effect, or effect the other way; inactive = flat fitted curve, though single readings scatter.

Assay: VP16 counterscreen qHTS for inhibitors of ROR gamma transcriptional activity;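 note: Gal4-VP16 expression switched on by copper sulfate through the metallothionein promoter; nearly all actives have a fitted effect of over 50% in size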
Conditions: Drosophila S2 Gal4-VP16 UAS-luciferase, luminescence, 20 h; at 53.6 µM (top of the series)
% is set by controls: 0 for no effect and ±100 for the full control effect.

Row | SMILES | activity, negative = inhibition
1 | CN(CCCl)CCCl | inactive: -19.9%
2 | CCC(=O)N(c1ccccc1)C1CCN(CCc2ccccc2)CC1 | inactive: 2.2%
3 | O=[N+]([O-])C(Cl)(Cl)Cl | inactive: -10%
